Measurements as given in patent US11457625B1, “Tuning a broad acting antimicrobial textile to act as a narrow spectrum antimicrobial textile” (priority 2018, dated 2022).

Test system: Staphylococcus aureus 27217 or Staphylococcus aureus 25923
Experiment: Determining kill vs binding (viability of bound cells in mannitol salts broth)
Assay type: cell-based
Settings: NyCo swatch, 2.5 mg/ml peptide, no PHMB; 24 hr

GGSGGSYSTCDFIM (STAPHYLOCOCCUS AUREUS) [Peptide]
growth in mannitol salts broth (viability of bound cells): growth
